This is an account of results in ChEMBL document CHEMBL5500354, “Novel selective agents for the degradation of AR/AR-V7 to treat advanced prostate cancer” (Eur J Med Chem, 2024).

SMILES strings stand for the structures.

The nature of data set [1]: in vivo. The settings on record: Sprague-Dawley, rat, po, 10 mg/kg.
Data set [2] can be described thus: in vivo. The note with it: Sprague-Dawley, rat, iv.
Data set [3] is described as follows: in vivo. The note with it: Sprague-Dawley, rat, po, 10 mg/kg. The source holds these as a separate data set.

In the case of `N#Cc1ccc(O[C@H]2CC[C@H](NC(=O)c3ccc(N4CCC(Cc5ccc(NC6CN(CCCF)C6)cc5)CC4)nn3)CC2)cc1Cl`, in the data set “in vivo [1]”, the Tmax at 24 h is ~6 h. Moreover, in “in vivo [2]”, the half-life was 13.9 h. In “in vivo [3]”, this molecule displayed a Cmax at 24 h of 65 nM.

In general, Tmax refers to the time at which the peak concentration occurs. The half-life is the time needed for the level to fall by half in the phase considered. By Cmax is commonly meant the peak of the concentration-time curve.
